Results as given in US20260184692A1, “HETEROCYCLIC COMPOUNDS, PREPARATION METHODS AND USES THEREOF” (InventisBio Co., Ltd., priority 2022, published 2026).

Protein sequences, listed by entry. Tags and fused reporters are not part of them.
UniProt P11712, whole entry: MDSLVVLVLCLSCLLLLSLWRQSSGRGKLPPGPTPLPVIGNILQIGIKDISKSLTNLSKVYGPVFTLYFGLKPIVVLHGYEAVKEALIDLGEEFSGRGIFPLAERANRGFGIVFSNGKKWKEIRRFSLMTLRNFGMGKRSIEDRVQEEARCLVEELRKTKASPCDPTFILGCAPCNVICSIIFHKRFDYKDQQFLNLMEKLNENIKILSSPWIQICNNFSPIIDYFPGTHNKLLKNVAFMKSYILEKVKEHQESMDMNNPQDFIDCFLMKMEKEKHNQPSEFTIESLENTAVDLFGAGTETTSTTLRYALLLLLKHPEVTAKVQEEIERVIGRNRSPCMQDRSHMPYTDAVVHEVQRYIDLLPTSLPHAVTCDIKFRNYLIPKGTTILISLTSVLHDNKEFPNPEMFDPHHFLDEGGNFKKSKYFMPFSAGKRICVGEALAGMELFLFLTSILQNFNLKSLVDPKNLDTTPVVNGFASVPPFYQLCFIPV
UniProt O75469, whole entry: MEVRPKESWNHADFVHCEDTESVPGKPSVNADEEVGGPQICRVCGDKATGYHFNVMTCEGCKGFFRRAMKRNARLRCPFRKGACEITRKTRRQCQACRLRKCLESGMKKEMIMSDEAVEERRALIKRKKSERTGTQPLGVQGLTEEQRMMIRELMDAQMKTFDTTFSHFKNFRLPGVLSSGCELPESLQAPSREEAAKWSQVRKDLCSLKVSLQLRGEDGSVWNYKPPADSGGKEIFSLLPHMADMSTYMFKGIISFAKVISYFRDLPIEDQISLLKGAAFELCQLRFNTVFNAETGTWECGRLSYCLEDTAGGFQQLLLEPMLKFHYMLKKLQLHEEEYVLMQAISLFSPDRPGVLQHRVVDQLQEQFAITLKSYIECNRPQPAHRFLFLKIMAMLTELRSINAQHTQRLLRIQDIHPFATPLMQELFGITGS

Key:
[1] = Human Plasma Protein Binding Assay (dialysis); settings: 1 μM compound, dialysis 6 hr at 37 °C
[2] = target: P450 2C9 (Homo sapiens, UniProt P11712); assay: In Vitro Cytochrome P450 Inhibition Study; settings: read-out: 2C9, IC50; human liver microsomes (HLM), test compound 0.137 μM to 10 μM, 10 min at 37 °C
[3] = target: PXR (Homo sapiens, UniProt O75469); assay: In Vitro PXR Activation Study (DPX2 cells); settings: concentration 30 uM, 48 h treatment

% Unbound [1]: 0.012%
IC50 [2]: 2500 nM
Induction Fold [3]: 5.8 x
Structure (SMILES): Cc1cc(NC(=O)c2ccc(NS(=O)(=O)CCO)cc2N2CCC3(CC2)CC3)nc(N2CCC(F)(F)CC2)n1
